Results on 19 compounds are retold here after PubChem BioAssay AID602393 (Broad Institute, 2012).

This is a selection; strong and weak results do not stand in their true shares. Some tests of the compounds listed are not included; inactive here does not mean inactive elsewhere. Calls of active or inactive are those of the source. Cut-off read from the data, not from the text of the source: active = activation above about 40%; inconclusive = no clear call, values can overlap the other calls; inactive = below that.

A short description of the experiment: raisers of Bmi1 knock-in reporter signal – mouse ES cells, Bmi1 luciferase knock-in, single point, esBAF inhibitor project, primary screen (AID 602393).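 Note: 0% = median of the plate's neutral control wells and 100% = double that signal; a rise in the Bmi1 reporter signal indicates esBAF inhibition.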 The conditions noted are these: 24 h, at 12.5 µM, hits give high values, 100% = twice the neutral-well signal.
On to `CN(C)c1ccc(C(=O)NCC2(N(C)C)CCCCC2)cc1`, for which the reporter increase is inactive: 11.1%.
The result for `COc1ccc(C(=O)NCC2(N(C)C)CCCCC2)cc1` reads inactive: -2.44%.
The result for `Cc1cc(C(=O)NCC2(N3CCCCC3)CCCCC2)ccc1[N+](=O)[O-]` reads inactive: 0.541%.
In the case of `O=C(NCC1(N2CCCCC2)CCCCC1)c1cccc(Br)c1` it was inactive: -6.49%; in that of `O=C(NCC1(N2CCCCC2)CCCCC1)c1cc(F)c(F)cc1Cl`, inactive: -2.06%.
As for `CN1[C@@H]2CC[C@H]1CC(OC(=O)C(O)(c1ccccc1)c1ccccc1)C2` (some centres undefined), the reporter increase is inactive: -3.45%.
With `Cc1ccc(C(=O)NCC2(N3CCCCC3)CCCCC2)cc1`, the reporter increase is inactive: -8.71%.
In the case of `COc1cc(SC)ccc1C(=O)NCC1(N(C)C)CCCCC1` it was inactive: 1.28%; in that of `CC(C)N1C(=O)CC2(CCN(CCOC(=O)C(O)(c3ccccc3)c3ccccc3)CC2)C1=O`, inactive: -0.972%; in that of `O=C(OC1CN2CCC1CC2)C(CO)(c1ccccc1)c1ccccc1` (centres undefined), inactive: -3.48%.
On to `CC(C)Oc1ccc(C(=O)NCC2(N(C)C)CCCCC2)cc1`, for which the reporter increase was inactive: -4.62%.
As for `O=C(OCCN1CCCC1)C(O)(c1ccccc1)c1ccccc1`, the reporter increase was inactive: 4.83%.
The result for `CN(C)c1cccc(C(=O)NCC2(N(C)C)CCCCC2)c1` reads inactive: 28.5%; that for `C=C(C)C#CC(O)(C(=O)OC1CCN(C)CC1)c1ccccc1` (centres undefined), inactive: 2.63%; that for `COc1ccc(Br)c(C(=O)NCC2(N3CCCCC3)CCCCC2)c1`, inactive: -8.08%.
For the compound `COc1cc(C(=O)NCC2(N(C)C)CCCCC2)c([N+](=O)[O-])cc1OC`, the reporter increase was inactive: 3.94%.
In the case of `CN(C)C1(CNC(=O)c2ccc(Br)cc2)CCCCC1` it was inactive: 3.63%.
The result for `O=C(NCC1(N2CCCCC2)CCCCC1)c1cccc(Cl)c1` reads inactive: -6.1%; that for `COc1ccc(Cl)cc1C(=O)NCC1(N(C)C)CCCCC1`, inactive: 5.48%.
